The list shows a part of the results, in another mix than the full data. Calls of active or inactive are those of the source.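 How the source made its calls: active means inhibition above the mean of all tested compounds plus 3 SD, cutoff set per campaign (cut at about 30% in these data); inactive means the rest.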

Chains of the proteins cited; added tags and fusions are not shown.
UniProt Q07817, whole entry: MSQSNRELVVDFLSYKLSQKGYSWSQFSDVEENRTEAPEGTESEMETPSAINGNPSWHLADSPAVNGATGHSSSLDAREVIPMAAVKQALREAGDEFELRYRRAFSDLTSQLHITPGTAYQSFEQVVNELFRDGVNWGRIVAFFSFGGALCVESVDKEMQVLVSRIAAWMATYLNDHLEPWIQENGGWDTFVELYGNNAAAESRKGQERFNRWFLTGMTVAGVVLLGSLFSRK

For the assay, the target named is Bcl-2-like protein 1 (Homo sapiens) (UniProt Q07817). The assay is described as follows: inhibitors of human Bcl-xL, primary screen, biochemical, fluorescence polarization, HTS (AID 2129).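 Further: 0% = DMSO wells and 100% = unlabeled Bim-BH3 peptide competitor; inhibitors lower millipolarization by displacing the labeled peptide.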 To be noted: GST-Bcl-xL / FITC-Bim BH3 peptide fluorescence polarization; at 10.9 µM; hits give high values. On the technique in general: Polarisation of emitted light reports the rotation of a fluorescent probe.
The term inhibition denotes the drop in the measured response relative to a control, in per cent. Consider `CN(C)C1(CNC(=O)c2cccc(C#N)c2)CCCCC1`, for which the inhibition was inactive: 0.39%.
As to `CCCN1CCC(Nc2cc(OC)cc(OC)c2)CC1`, the inhibition is active: 34.9%.
For `c1ccc(CN2CCC(Nc3ccccc3)CC2)cc1`, the inhibition was inactive: -0.4%.
The figure for `N#Cc1ccc(C(=O)NCC2(N3CCCCC3)CCCCC2)cc1` is inactive: -3.35%; for `CC(C)(C)OC(=O)N1CCC(N(C(=O)c2ccccc2)c2ccc(Cl)cc2)CC1` it is inactive: 6.29%; for `O=C(OC1CN2CCC1CC2)C1c2ccccc2C=Cc2ccccc21` (stereo unspecified) it is inactive: 5.01%.
On to `CCc1cc(C(=O)NCC2(N3CCCCC3)CCCCC2)sc1C`, for which the inhibition was inactive: 8.65%.
For the compound `CCOC(=O)N1CCC(Nc2ccc(C)cc2)CC1`, the inhibition was inactive: 4.36%.
The figure for `N/C(=N\O)c1c(N)no[n+]1[O-]` is inactive: 2.09%; for `COc1ccc(C(=O)NCC2(N3CCOCC3)CCCCC2)cc1OC` it is inactive: 3.14%; for `O=C(NCC1(N2CCOCC2)CCCCC1)c1cc(Br)ccc1Cl` it is inactive: 2.62%.
To `CN1CCC(Nc2ccc(Cl)cc2)CC1` belongs inactive: 4.33%; to `CCCOc1ccc(C)cc1CN(CCCl)CCCl`, inactive: 5.5%.
To `COc1cccc(C(=O)N(c2cc(C)cc(C)c2)C2CCN(C(=O)OC(C)(C)C)CC2)c1` belongs inactive: -3.7%; to `COc1cc(OC)cc(C(=O)NCC2(N3CCOCC3)CCCCC2)c1`, inactive: -1.71%.
As for `CCC(CO)(C(=O)OC1CN2CCC1CC2)c1ccccc1` (stereo unspecified), the inhibition was inactive: 0.54%.
Consider `O=C(O)C1(Nc2ccccc2)CCN(Cc2ccccc2)CC1`, for which the inhibition was inactive: -1.17%.
Consider `CC(C)(C)OC(=O)N1CCC(Nc2ccccc2)CC1`, for which the inhibition was inactive: 3.18%.
Take `CCCOc1ccc(C(=O)NCC2(N(C)C)CCCCC2)cc1`: the inhibition is inactive: 4.4%.
As for `CN1CCC(Nc2ccc(F)c(Cl)c2)CC1`, the inhibition is inactive: -0.35%.
Turning to `CCOc1ncccc1C(=O)NCC1(N2CCOCC2)CCCCC1`, the inhibition was inactive: 0.54%.
The figure for `CN(C)c1ccc(C(=O)NCC2(N3CCCCC3)CCCCC2)cc1` is inactive: 2.88%.
For `O=C(NCC1(N2CCCCC2)CCCCC1)c1ccco1`, the inhibition was inactive: -0.14%.
Turning to `CCN1CCC(Nc2cccc(F)c2)CC1`, the inhibition was inactive: -2.77%.
Turning to `Fc1ccccc1NC1CCN(Cc2ccccc2)CC1`, the inhibition was inactive: -0.16%.
For the compound `Cc1ccc(C(=O)NCC2(N3CCCCC3)CCCCC2)o1`, the inhibition was inactive: 5.88%.
For the compound `COc1cc(OC)cc(C(=O)NCC2(N3CCCCC3)CCCCC2)c1`, the inhibition is inactive: 1.97%.
`Cc1ccc(OCC(C)C)c(CN(CCCl)CCCl)c1`: the inhibition was inactive: 2.31%.
As for `CCOC(=O)N1CCC(Nc2cccc(C)c2)CC1`, the inhibition was inactive: 2.28%.
For `COc1ccc(NC2CCN(CCc3ccccc3)CC2)c(OC)c1`, the inhibition is inactive: 6.95%.
To `O=C(NCC1(N2CCCCC2)CCCCC1)c1ccc(F)cc1` belongs inactive: 0.5%.
Regarding `CCOc1ccc(C)cc1CN(CCCl)CCCl`, the inhibition is inactive: 9.58%.
With `COc1ccc(Cl)cc1C(=O)NCC1(N2CCOCC2)CCCCC1`, the inhibition is inactive: 1.28%.
As for `O=C(OC1CN2CCC1CC2)C1c2ccccc2Oc2ccccc21` (stereo unspecified), the inhibition was inactive: 27.4%.
The figure for `O=C(NCC1(N2CCCCC2)CCCCC1)c1ccc(Cl)s1` is inactive: -3.15%; for `N#CC1(Nc2ccccc2)CCN(Cc2ccccc2)CC1` it is inactive: 3.13%; for `CCOC(=O)N1CCC(Nc2ccc(OC)cc2)CC1` it is inactive: 8.99%.
`Cc1cc(C)cc(N(C(=O)c2ccccc2)C2CCN(C(=O)OC(C)(C)C)CC2)c1`: the inhibition is inactive: 5.32%.
In the case of `O=C(NCC1(N2CCCCC2)CCCCC1)c1ccc(Cl)nc1`, the inhibition was inactive: -15.3%.
On to `O=C(NCC1(N2CCOCC2)CCCCC1)c1cc2ccccc2o1`, for which the inhibition is inactive: -3.89%.
The figure for `CSc1ccccc1C(=O)NCC1(N2CCCCC2)CCCCC1` is inactive: 6.9%; for `CC(C)(C)OC(=O)N1CCC(N(C(=O)c2ccccc2)c2ccc(F)cc2)CC1` it is inactive: -0.65%; for `COc1ccc(C(=O)NCC2(N3CCCCC3)CCCCC2)c(OC)c1OC` it is inactive: 2.05%.
In the case of `COc1ccc(C(=O)NCC2(N3CCCCC3)CCCCC2)cc1`, the inhibition is inactive: 0.5%.
`O=C(NCC1(N2CCCCC2)CCCCC1)c1cccs1`: the inhibition was inactive: -7.05%.
Take `O=C(NCC1(N2CCCCC2)CCCCC1)c1ccc(=O)[nH]c1`: the inhibition is inactive: -1.35%.
As to `O=C(NCC1(N2CCCCC2)CCCCC1)c1cncc(Br)c1`, the inhibition is inactive: 0.62%.
On to `CN1CCC(Nc2cccc(F)c2)CC1`, for which the inhibition is inactive: 3.59%.
The figure for `COc1cc(OC)c(C(=O)NCC2(N(C)C)CCCCC2)cc1OC` is inactive: 2.76%; for `CC(C)c1ccc(NC2CCN(C(=O)OC(C)(C)C)CC2)cc1` it is inactive: 3.94%.
Turning to `CN(C)c1cccc(C(=O)NCC2(N3CCCCC3)CCCCC2)c1`, the inhibition is inactive: 3.83%.
As for `COc1ccc(CN(CCCl)CCCl)cc1Cl`, the inhibition is inactive: 1.94%.
In the case of `O=C(NCC1(N2CCOCC2)CCCCC1)c1cc(=O)[nH]c2ccccc12`, the inhibition is inactive: -4.02%.
Take `COc1cc(C(=O)NCC2(N3CCCCC3)CCCCC2)ccc1OC(F)F`: the inhibition was inactive: -7.86%.
With `COc1ccc(NC2CCN(C(=O)OC(C)(C)C)CC2)cc1`, the inhibition is inactive: 12.9%.
Consider `CN1CCN(CCOC(=O)C(O)(c2ccccc2)c2ccccc2)CC1`, for which the inhibition was inactive: 4.62%.
As to `O=C(NCC1(N2CCCCC2)CCCCC1)c1cccc(C(F)(F)F)c1`, the inhibition is inactive: 3.03%.
Turning to `N#CC1(Nc2ccccc2)CCN(CCc2ccccc2)CC1`, the inhibition is inactive: 7.04%.
For `CCN1CCC(Nc2ccc(Cl)cc2)CC1`, the inhibition is inactive: 5.66%.
Turning to `O=C(NCC1(N2CCCCC2)CCCCC1)c1cccc([N+](=O)[O-])c1`, the inhibition is inactive: -10.8%.
To `O=C(NCC1(N2CCCCC2)CCCCC1)c1ccc(OC(F)F)cc1` belongs inactive: -4.42%.
